The list shows a part of the results, in another mix than the full data. Calls of active or inactive are those of the source.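 Rule for the calls: active = inhibition above a per-plate limit of that plate's mean compound inhibition plus 3 SD (cut at about 60% in these data); inactive = the rest.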

This assay is described as follows: suppression of KLF5 promoter-driven luciferase – DLD-1 cells, luminescence, primary screen (AID 1700).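 Note: 0% = DMSO wells and 100% = LY294002 at 200 µM; higher means less KLF5 promoter-driven luciferase light.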 Particulars: DLD-1 KLF5 promoter-luciferase reporter, at 5 µM, hits give high values.
As for `O=C(OC1CN2CCC1CC2)C1c2ccccc2C=Cc2ccccc21` (centres undefined), the inhibition (commonly the change of the read-out against control, counted positive when it falls) is inactive: -1.01%. Consider `CCOC(=O)N1CCC(Nc2ccc(C)cc2)CC1`, for which the inhibition is inactive: -37.7%. Then `N/C(=N\O)c1c(N)no[n+]1[O-]`, with inactive: -54.5%. The same measure for `COc1ccc(C(=O)NCC2(N3CCOCC3)CCCCC2)cc1OC`: inactive: -37.4%; for `CN(C)C1(CNC(=O)c2cccc(C#N)c2)CCCCC1`: inactive: -4.12%. The same measure for `CCCN1CCC(Nc2cc(OC)cc(OC)c2)CC1`: inactive: -11.9%; for `c1ccc(CN2CCC(Nc3ccccc3)CC2)cc1`: inactive: -3.93%; for `N#Cc1ccc(C(=O)NCC2(N3CCCCC3)CCCCC2)cc1`: inactive: -4.07%. For the compound `CC(C)(C)OC(=O)N1CCC(N(C(=O)c2ccccc2)c2ccc(Cl)cc2)CC1`, the inhibition is inactive: -52.6%. Then `CN(C)c1ccc(C(=O)NCC2(N3CCCCC3)CCCCC2)cc1`, with inactive: 7.25%. The same measure for `CCN1CCC(Nc2cccc(F)c2)CC1`: inactive: -1.04%. On to `COc1cc(OC)cc(C(=O)NCC2(N3CCCCC3)CCCCC2)c1`, for which the inhibition was inactive: 15.9%.

As to `CN1CCC(Nc2ccc(Cl)cc2)CC1`, the inhibition is inactive: -6.18%. Then `CCCOc1ccc(C)cc1CN(CCCl)CCCl`, with inactive: -6.41%; and `COc1cc(OC)cc(C(=O)NCC2(N3CCOCC3)CCCCC2)c1`, with inactive: -4.37%. The same measure for `COc1cccc(C(=O)N(c2cc(C)cc(C)c2)C2CCN(C(=O)OC(C)(C)C)CC2)c1`: inactive: -27.8%.

Regarding `CCC(CO)(C(=O)OC1CN2CCC1CC2)c1ccccc1` (centres undefined), the inhibition was inactive: -20.2%. The same measure for `O=C(O)C1(Nc2ccccc2)CCN(Cc2ccccc2)CC1`: inactive: -22.2%; for `CC(C)(C)OC(=O)N1CCC(Nc2ccccc2)CC1`: inactive: -9.96%; for `CCCOc1ccc(C(=O)NCC2(N(C)C)CCCCC2)cc1`: inactive: -15.2%. Then `CN1CCC(Nc2ccc(F)c(Cl)c2)CC1`, with inactive: -32%; and `CCOc1ncccc1C(=O)NCC1(N2CCOCC2)CCCCC1`, with inactive: -11.2%. Then `O=C(OC1CN2CCC1CC2)C1c2ccccc2Oc2ccccc21` (centres undefined), with inactive: -4.89%. As to `N#CC1(Nc2ccccc2)CCN(Cc2ccccc2)CC1`, the inhibition was inactive: -7.43%.

Regarding `CCOC(=O)N1CCC(Nc2ccc(OC)cc2)CC1`, the inhibition was inactive: -23.7%. Then `Cc1cc(C)cc(N(C(=O)c2ccccc2)C2CCN(C(=O)OC(C)(C)C)CC2)c1`, with inactive: -17.4%; and `O=C(NCC1(N2CCOCC2)CCCCC1)c1cc2ccccc2o1`, with inactive: -11.2%; and `CSc1ccccc1C(=O)NCC1(N2CCCCC2)CCCCC1`, with inactive: -7.63%.

Regarding `COc1ccc(C(=O)NCC2(N3CCCCC3)CCCCC2)c(OC)c1OC`, the inhibition was inactive: -5.09%. In the case of `CC(C)(C)OC(=O)N1CCC(N(C(=O)c2ccccc2)c2ccc(F)cc2)CC1`, the inhibition is inactive: -31.7%. As for `COc1ccc(C(=O)NCC2(N3CCCCC3)CCCCC2)cc1`, the inhibition was inactive: -15.8%. With `O=C(NCC1(N2CCCCC2)CCCCC1)c1ccc(=O)[nH]c1`, the inhibition was inactive: 11.9%. The same measure for `Cc1ccc(OCC(C)C)c(CN(CCCl)CCCl)c1`: inactive: -1.48%; for `COc1cc(C(=O)NCC2(N(C)C)CCCCC2)ccc1OC(F)F`: inactive: -35.5%; for `CCOC(=O)N1CCC(Nc2cccc(C)c2)CC1`: inactive: -14.1%. The same measure for `COc1ccc(NC2CCN(CCc3ccccc3)CC2)c(OC)c1`: inactive: -15.9%; for `CCOC(=O)N1CCC(Nc2ccc(F)cc2)CC1`: inactive: -10.3%.

Take `O=C(NCC1(N2CCCCC2)CCCCC1)c1ccc(F)cc1`: the inhibition was inactive: -16.1%. Consider `CCOc1ccc(C)cc1CN(CCCl)CCCl`, for which the inhibition was inactive: -34.8%. Then `COc1cc(C(=O)NCC2(N3CCCCC3)CCCCC2)ccc1OC(F)F`, with inactive: 0.34%. With `O=C(NCC1(N2CCOCC2)CCCCC1)c1cc(=O)[nH]c2ccccc12`, the inhibition is inactive: -25.2%.

For the compound `CN1CCN(CCOC(=O)C(O)(c2ccccc2)c2ccccc2)CC1`, the inhibition was inactive: -13.8%. The same measure for `COc1ccc(NC2CCN(C(=O)OC(C)(C)C)CC2)cc1`: inactive: -21.5%; for `O=C(NCC1(N2CCCCC2)CCCCC1)c1cccc(C(F)(F)F)c1`: inactive: -48.3%; for `N#CC1(Nc2ccccc2)CCN(CCc2ccccc2)CC1`: inactive: -11.1%. The same measure for `CCN1CCC(Nc2ccc(Cl)cc2)CC1`: inactive: -19.1%. The same measure for `O=C(NCC1(N2CCCCC2)CCCCC1)c1cccc([N+](=O)[O-])c1`: inactive: -25.5%; for `O=C(NCC1(N2CCCCC2)CCCCC1)c1ccc(OC(F)F)cc1`: inactive: -33.6%.

Take `CCCOc1ccc(C(=O)NCC2(N(C)C)CCCCC2)cc1OC`: the inhibition was inactive: -14.2%. Then `CN1CCC(Nc2cccc(F)c2)CC1`, with inactive: -23.3%; and `COc1cc(OC)c(C(=O)NCC2(N(C)C)CCCCC2)cc1OC`, with inactive: -8.51%. The same measure for `CC(C)c1ccc(NC2CCN(C(=O)OC(C)(C)C)CC2)cc1`: inactive: -43.4%; for `CN(C)c1cccc(C(=O)NCC2(N3CCCCC3)CCCCC2)c1`: inactive: -14%; for `COc1ccc(CN(CCCl)CCCl)cc1Cl`: inactive: -24.3%.
